The values that follow come from PMC5447464 (Gastroenterology, 2017).

In the assay the test system is primary hepatocytes Hu1651. The assay can be described thus: Viability of primary hepatocytes Hu1651. As to conditions: Homo sapiens, Hepatocyte, read-out: IC50 in primary hepatocytes, Hu1651. The assay is classed as cell-based.

For orientation: IC50 means the midpoint of a concentration-inhibition curve. In the case of `O=C(Nc1ccc([N+](=O)[O-])cc1Cl)c1cc(Cl)ccc1O` [niclosamide], the IC50 was determined as 3.58 µM.
